# Results published in patent US6329497A, “Sandramycin analogs” (The Scripps Research Institute, priority 1999, dated 2001).
# Tested on: L1210 cell line
# Experiment: In vitro cytotoxic activity, L1210
# Assay type: cell-based
substance,measurement,value
(N-(Iso-quinolinyl-3-carbonyl)-D-Ser-Pip-Gly-Sar-NMe-Val)2 (Serine Hydroxyl) Dilactone [compound 21],"cytotoxic potency, fold less potent than 4",100
same,"cytotoxic potency, fold more effective than 10",4000
(N-(Isoquinolinyl-1-carbonyl)-D-Ser-Pip-Gly-Sar-NMe-Val)2 (Serine Hydroxyl) Dilactone [compound 22],"cytotoxic potency, fold less potent than 4",100
same,"cytotoxic potency, fold more effective than 10",4000
